This note sets out measurements from ChEMBL document CHEMBL1136895, “NO donors. Part 18: Bioactive metabolites of GTN and PETN--synthesis and vasorelaxant properties” (2009).

The experiment in a line: Vasorelaxant activity in pig pulmonary artery by organ bath experiment.

The structures appear in SMILES notation. Some compounds may have been tested in ways that are not shown here.

For `O=[N+]([O-])OCC(CO[N+](=O)[O-])O[N+](=O)[O-]`, it took 27 nM to reach a half-maximal effect (EC50).
